Data as given in patent US20200032163A1, “Method for the Virus Inactivation of a Preparation of Monoclonal Antibodies” (Laboratoire Francais du Fractionnement et des …, priority 2016, published 2020).

Experiment: Adsorption of polysorbate 80 and TnBP by the multilayer film of the 75 mL flexible bag (HPLC)
[1] = Bag according to the invention, 30 min, 25±3° C.
[2] = Bag according to the invention, 1 hour, 25±3° C.
[3] = Bag according to the invention, 2 hours, 25±3° C.

In the case of `CCCCOP(=O)(OCCCC)OCCCC`, the “adsorption by the bag” value (75 mL flexible bag, 2 hours, 25±3° C.) is reported as “no significant adsorption”, the “TnBP Concentration” value (Bag according to the invention, 0 min, 25±3° C.) is reported as 3308 mg/L and the “TnBP Adsorption with respect to T0” value [1] is reported as −3.5%. For the same compound, the “TnBP Concentration” value [1] was 3425 mg/L, the “TnBP Adsorption with respect to T0” value [2] was 5.6% and the “TnBP Concentration” value [2] was 3493 mg/L. The “TnBP Adsorption with respect to T0” value [3] was 0.8%, the “TnBP Concentration” value [3] was 3333 mg/L and the “TnBP Concentration” value (Glass flask (negative control), 30 min) was 3042 mg/L.
